{"sequences": {"note": "Chains of the proteins cited; added tags and fusions are not shown.", "UniProt P28222, whole entry": "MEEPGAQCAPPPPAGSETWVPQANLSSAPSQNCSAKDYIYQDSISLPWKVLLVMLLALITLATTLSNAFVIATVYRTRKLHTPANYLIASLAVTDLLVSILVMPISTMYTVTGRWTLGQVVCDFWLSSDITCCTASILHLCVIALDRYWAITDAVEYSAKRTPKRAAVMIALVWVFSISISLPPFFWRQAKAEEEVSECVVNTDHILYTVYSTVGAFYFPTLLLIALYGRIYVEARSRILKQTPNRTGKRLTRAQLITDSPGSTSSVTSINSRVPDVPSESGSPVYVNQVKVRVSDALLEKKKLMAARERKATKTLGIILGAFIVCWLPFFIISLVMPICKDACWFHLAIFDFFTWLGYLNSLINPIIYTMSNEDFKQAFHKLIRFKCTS"}, "source": "BindingDB's records for doi:10.1016/0006-291x(92)90654-4", "about": "(Veterans Affairs Medical Center, 1992)", "molecular_target": "5-hydroxytryptamine receptor 1B (Homo sapiens, UniProt P28222)"}
{"smiles": "CC(C)NC[C@H](O)COc1cccc2ccccc12", "note": "[Propanolol,(+/-)]", "values": [{"measurement": "Ki", "result": 0.64, "unit": "µM"}]}
{"smiles": "COC(=O)[C@@H]1[C@H]2C[C@H]3c4[nH]c5ccccc5c4CCN3C[C@@H]2CC[C@@H]1O", "note": "[yohimbic acid methyl ester]", "values": [{"measurement": "Ki", "result": 0.005, "unit": "µM"}]}
